ChEMBL document CHEMBL4665801, “Pyrazole-Based Lactate Dehydrogenase Inhibitors with Optimized Cell Activity and Pharmacokinetic Properties” (J Med Chem, 2020)

Experiments:
[1] = molecular target: T1, PXR (nuclear receptor subfamily 1 group I member 2) (Homo sapiens, UniProt O75469); test: Activation of PXR (unknown origin) up to 10 uM relative to control; format: ADME; settings: read-out: FC
T1 sequence (O75469 whole entry): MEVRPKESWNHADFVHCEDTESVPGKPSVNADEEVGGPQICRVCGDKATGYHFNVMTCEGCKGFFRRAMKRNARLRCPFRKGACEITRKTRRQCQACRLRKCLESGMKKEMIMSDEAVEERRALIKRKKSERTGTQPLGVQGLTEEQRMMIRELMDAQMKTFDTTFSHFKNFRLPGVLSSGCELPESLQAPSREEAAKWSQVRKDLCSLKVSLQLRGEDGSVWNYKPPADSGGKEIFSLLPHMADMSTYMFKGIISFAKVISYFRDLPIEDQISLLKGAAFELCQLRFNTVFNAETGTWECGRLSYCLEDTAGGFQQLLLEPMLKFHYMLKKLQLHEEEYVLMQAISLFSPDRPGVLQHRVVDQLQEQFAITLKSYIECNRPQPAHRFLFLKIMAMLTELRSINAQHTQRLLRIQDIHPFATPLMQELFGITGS

[2] = molecular target: T2, AhR (aryl hydrocarbon receptor) (Homo sapiens, UniProt P35869); test: Activation of AhR (unknown origin) up to 10 uM relative to control; format: ADME; settings: read-out: FC
T2 sequence (P35869 whole entry): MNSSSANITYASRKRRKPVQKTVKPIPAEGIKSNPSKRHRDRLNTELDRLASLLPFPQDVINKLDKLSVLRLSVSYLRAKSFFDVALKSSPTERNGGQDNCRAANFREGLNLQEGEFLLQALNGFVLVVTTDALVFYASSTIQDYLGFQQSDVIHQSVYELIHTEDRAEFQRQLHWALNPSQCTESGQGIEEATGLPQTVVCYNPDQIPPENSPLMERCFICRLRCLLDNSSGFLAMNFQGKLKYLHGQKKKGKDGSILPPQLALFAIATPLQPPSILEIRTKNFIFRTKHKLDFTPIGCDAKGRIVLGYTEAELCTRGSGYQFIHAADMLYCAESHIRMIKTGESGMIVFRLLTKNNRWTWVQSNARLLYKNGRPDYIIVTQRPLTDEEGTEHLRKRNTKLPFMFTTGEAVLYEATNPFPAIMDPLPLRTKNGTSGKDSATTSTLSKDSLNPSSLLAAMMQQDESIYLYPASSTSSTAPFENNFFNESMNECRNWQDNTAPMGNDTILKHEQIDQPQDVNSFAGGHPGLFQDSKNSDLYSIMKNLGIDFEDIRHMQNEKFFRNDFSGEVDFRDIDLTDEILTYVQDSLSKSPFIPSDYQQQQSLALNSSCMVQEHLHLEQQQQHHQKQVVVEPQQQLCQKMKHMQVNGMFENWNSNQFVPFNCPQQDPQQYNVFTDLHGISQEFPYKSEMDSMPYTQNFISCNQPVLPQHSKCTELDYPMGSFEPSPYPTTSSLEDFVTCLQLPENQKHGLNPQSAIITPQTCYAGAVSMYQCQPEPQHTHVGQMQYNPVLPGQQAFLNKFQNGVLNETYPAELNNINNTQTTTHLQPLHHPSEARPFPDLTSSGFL

## Cc1ccc(C#Cc2cc(-c3nn(-c4nc(C(=O)O)cs4)c(CC4CC4)c3Cc3ccc(S(N)(=O)=O)c(F)c3)ccc2F)s1
[1]
  fold induction: < 2
[2]
  fold induction: < 2
